From the NIST ThermoML archive (doi:10.1016/j.jct.2018.11.010)

Assay: xn = mol fraction of the nth substance listed
Conditions: Liquid, Vibrating tube method, x1 = 1

CCCCOCCCC [dibutyl ether] + CCCCCCCO
mass density [kg/m3]
Conditions	298.15 K	313.15 K	333.15 K	353.15 K	373.15 K	393.15 K
100 kPa	763.8	750.7	733	715	–	–
1000 kPa	764.7	751.6	734	716.2	697.9	679
5000 kPa	768.2	755.6	738.5	721.3	703.8	685.9
10000 kPa	772.4	760.1	743.6	727.2	710.5	693.5
15000 kPa	776.4	764.5	748.6	732.7	716.7	700.6
20000 kPa	780.2	768.6	753.1	737.8	722.4	706.9
25000 kPa	783.7	772.3	757.5	742.6	727.7	712.8
30000 kPa	787.3	776.2	761.5	747.1	732.7	718.3
35000 kPa	790.6	779.7	765.5	751.4	737.4	723.5
40000 kPa	793.8	783.1	769.2	755.4	741.9	728.3
45000 kPa	796.9	786.4	772.7	759.3	746.1	732.8
50000 kPa	799.8	789.7	776.2	763	750	737.2
55000 kPa	802.8	792.7	779.6	766.6	754	741.4
60000 kPa	805.6	795.7	782.7	770.1	757.7	745.3
65000 kPa	808.3	798.6	785.8	773.4	761.2	749.1
70000 kPa	811	801.4	788.8	776.7	764.6	752.8
80000 kPa	816.1	806.7	794.6	782.7	771.2	759.7
90000 kPa	821	811.9	800	788.5	777.3	766.2
100000 kPa	825.5	816.7	805.2	794	783	772.3
110000 kPa	830	821.4	810	799.2	788.5	778.1
120000 kPa	834.2	825.7	814.7	804	793.6	783.4
130000 kPa	838.3	830.1	819.3	808.7	798.6	788.6
140000 kPa	842.1	834.2	823.5	813.3	803.3	793.6
